Results: patent US5510355A, “Depolarizing skeletal muscle relaxants” (priority 1994, dated 1996)

Test system: ganglionic-type neuronal nicotinic receptors (rat pheochromocytoma clonal line PC12)
Type: cell-based
Conditions: read-out: RAT GANGLIA EC50 (concentration resulting in half maximal activation of specific ion flux), PC12, 86Rb+ efflux, 4 minutes at 20° C.
Method: The selectivity at muscle nicotinic receptors of the various analogs described in this invention was determined by their functional efficacies and potencies at muscle and ganglionic sites.
Ganglionic effects were established on the rat pheochromocytoma clonal line PC12 which is a continuous clonal cell line of neural crest origin derived from a tumor of the rat adrenal medulla expressing ganglionic-type neuronal nicotinic receptors. […] Discussion concerning the heterogeneity of nicotinic receptors subtypes is set forth in Lukas et al., Internatl. […] Acetylcholine nicotinic receptors expressed in rat ganglia share a very high degree of homology with their human counterparts. See, Fornasari et al., Neurosci.
Intact cells on dishes were used for functional studies.
The medium was removed and ^86 Rb^+ was quantitated using Cerenkov detection. […] Specific ion efflux was determined as the difference in isotope efflux between total and non-specific efflux samples. Dose-response curves were plotted and the concentration resulting in half maximal activation of specific ion flux through nicotinic receptors determined for human muscle and rat ganglionic preparations (EC50).

CC(=O)OCC[N+](C)(C)C [C-1, acetylcholine, reference compound]
EC50: 40 µM
